Test results from IntAct's records for PubMed 12601044.

B1: Gamma-crystallin C (Homo sapiens), P07315 (parent)
chain: MGKITFYEDRAFQGRSYETTTDCPNLQPYFSRCNSIRVESGCWMLYERPNYQGQQYLLRRGEYPDYQQWMGLSDSIRSCCLIPQTVSHRLRLYEREDHKGLMMELSEDCPSIQDRFHLSEIRSLHVLEGCWVLYELPNYRGRQYLLRPQEYRRCQDWGAMDAKAGSLRRVVDLY
partner: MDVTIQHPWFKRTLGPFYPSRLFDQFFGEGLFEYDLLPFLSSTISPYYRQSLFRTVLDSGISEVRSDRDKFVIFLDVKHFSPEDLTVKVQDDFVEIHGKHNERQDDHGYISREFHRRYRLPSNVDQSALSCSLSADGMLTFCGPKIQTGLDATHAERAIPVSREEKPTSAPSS

Variants of: B1
Settings: with cryaa_human CRYAA
T5P was tested, and the “effect of a mutation on the interaction” value was “disrupting interaction”.
